High-throughput results deposited in PubChem by Broad Institute.
Vif imaging: HIV Vif self-association inhibitors, primary screen, imaging, HEK293T, single point; 340,000 compounds, 0.35% hits; inhibition, % at 7.49 µM; HEK293T cells, Vif self-association by quenched fluorescence, 24 h; in the data active = inhibition above about 50%, passing the limit was not always enough
PglD DTNB: C. jejuni PglD acetyltransferase inhibitors, primary screen, biochemical, DTNB colorimetric, single point; UDP-N-acetylbacillosamine N-acetyltransferase PglD (Campylobacter jejuni); purified PglD enzyme, DTNB colorimetric CoA detection; inhibition, % at 12.5 µM; 360,000 compounds, 0.098% hits; AID 602405, 2012; in the data active = inhibition above about 16%, passing the limit was not always enough
CAL PDZ FP-1: CAL PDZ peptide-binding inhibitors, primary screen, biochemical, fluorescence polarization, Cer-tagged CAL PDZ, HTS; Golgi-associated PDZ and coiled-coil motif-containing protein (Homo sapiens), Q9HD26; purified CAL PDZ, TMR-peptide fluorescence polarization, 1 h; inhibition, % at 20 µM; 330,000 compounds, 0.02% hits;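 active = highest replicate inhibition of at least 40%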;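 also: plate controls were DMSO neutral control wells for no effect and unlabeled competitor peptide control wells for full effect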
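Assay system – tagged CAL PDZ protein CerCALP, purified · Timing – 1 h at RT · Compound – single point, 20 µM · Measured by – fluorescence polarization from S- and P-plane intensities, G-factor corrected · Evaluation – inhibition from polarization loss · Probe or stimulus – TMR reporter peptide T*-PRC34 · Buffer or medium – pH 7.4 phosphate-saline buffer, reducing agent, detergent, IgG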
ARNT-TACC3 inh: disruptors of ARNT/TACC3 protein interaction, primary screen, biochemical, AlphaScreen, single concentration | 390,000 compounds, 0.66% hits | AlphaScreen His-ARNT PAS-B/GST-TACC3 binding, luminescence; TACC3 fragment carries E629A point mutation | inhibition, % at 9.99 µM | Transforming acidic coiled-coil-containing protein 3 (Homo sapiens), Q9Y6A5;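 active = mean inhibition of replicates at least 50% and at least half of replicates each reaching 50%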;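 also: 0% = complete ARNT plus TACC3 wells and 100% = ARNT alone without TACC3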
CAL PDZ FP-2: untagged CAL PDZ binding inhibitors, primary screen, biochemical, fluorescence polarization, HTS; inhibition, % at 24.9 µM; purified CAL PDZ, TMR-peptide fluorescence polarization, 1 h; AID 602252, 2012; Golgi-associated PDZ and coiled-coil motif-containing protein (Homo sapiens), Q9HD26; 300,000 compounds, 0.92% hits;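 active = mean inhibition of at least 30% with at least half of replicates also reaching 30%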;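 also: 0% = DMSO neutral control and 100% = excess unlabeled competitor peptide PRC23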
Yeast UUG start: modulators of start codon recognition fidelity in yeast. S. cerevisiae UUG-firefly luciferase reporter, luminescence/redox ratio. activity score, % at 18.7 µM. 0.13% of 350,000 active. AID 602363;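 active = replicate mean at a twofold rise or more, about +100% in these data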;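 also: firefly luciferase made from a UUG start codon reports start codon fidelity; reporter light over untreated wells divided by growth signal over untreated wells; some hits fall short of that in this replicate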
Numbers without * were called inactive; · = not tested or not shown; + = active, no number. The list is not random: actives were taken first. Their share in the collection is about 1.6%.

[1] CN(CC1CCCO1)S(=O)(=O)c1ccc(C(=O)Nc2nc(-c3ccccn3)cs2)cc1 (stereo not drawn)
[2] CN(CC1CCCO1)S(=O)(=O)c1ccc(C(=O)Nc2ccccc2F)cc1 (stereo not drawn)
[3] Cc1ccc(OCCC(=O)N(CC(=O)Nc2ccccc2C(F)(F)F)Cc2ccco2)cc1
[4] C[C@@H]1CN([C@@H](C)CO)C(=O)c2cc(C3=CCCC3)cnc2O[C@@H]1CN(C)C(=O)Nc1ccc(F)cc1
[5] O=C(c1cc(COc2c(F)cccc2F)on1)N(Cc1ccccc1)CC1CC1
[6] COc1ccc(N=C(N)SCc2ccccn2)cc1
[7] CSc1nccc(-c2nn(-c3ccc(C)cc3)ccc2=O)n1
[8] O=S(=O)(c1ccccc1)N1N=C(c2ccccc2)CC1c1ccccc1 (stereo not drawn)

screen / no.,1,2,3,4,5,6,7,8
Vif imaging,-34.7,-7.3,9.4,·,-0.8,3.0,·,16.0
PglD DTNB,-6.3,·,3.7,-2.7,-4.2,·,0.5,·
CAL PDZ FP-1,-1.6,-1.7,-2.3,·,-0.5,0.3,-1.9,-0.8
ARNT-TACC3 inh,59.3*,21.1,3.4,-4.2,-13.2,55.3*,58.2*,-2.0
CAL PDZ FP-2,-1.2,-2.1,40.0*,·,63.7*,·,-6.8,44.9*
Yeast UUG start,-40.0,-5.9,3.4,3.0,12.0,·,-26.6,·

[9] C[C@H](CO)N1C[C@H](C)[C@@H](CN(C)Cc2ccc3c(c2)OCO3)Oc2ccc(NC(=O)Nc3ccc(F)cc3)cc2CC1=O
[10] CC(C)CSc1nnc(N)s1
[11] CCSc1nnc(N)s1
[12] COC(=O)c1ccccc1NC(=O)Cn1cnc2cc(C)c(C)cc21
[13] C[C@H](CO)N1C[C@H](C)[C@H](CN(C)C(=O)c2cnccn2)Oc2ncc(-c3ccccc3F)cc2C1=O
[14] CCc1ccc(S(=O)(=O)Nc2cc(SCC(=O)O)c(O)c3ccccc23)cc1
[15] Cc1ccc(C)c(S(=O)(=O)Nc2cc(SCC(=O)O)c(O)c3ccccc23)c1
[16] O=C(N[C@H]1CC[C@@H](CCNC(=O)C2CCOCC2)O[C@@H]1CO)c1ccncc1

screen / no.,9,10,11,12,13,14,15,16
Vif imaging,·,0.8,-4.9,70.6*,·,8.1,-3.0,·
PglD DTNB,-1.4,-3.4,0.7,-6.3,0.1,·,·,-1.9
CAL PDZ FP-1,·,-0.6,0.1,-0.7,·,18.8,45.2*,·
ARNT-TACC3 inh,19.5,-5.7,-4.8,24.1,-2.0,·,54.1*,-0.2
CAL PDZ FP-2,·,57.5*,·,0.5,·,16.1,17.3,·
Yeast UUG start,-3.4,-19.0,-10.3,-7.9,·,·,·,-8.7

[17] COC(=O)c1ccc(CN2C(=O)c3ccccc3S2(=O)=O)cc1
[18] CC(C)c1ccc(CN2C(=O)c3ccccc3S2(=O)=O)cc1
[19] COCCNC(=O)c1cn(CCOC)c(=O)c2c1c1ccccc1n2C
[20] C[C@@H]1CN([C@H](C)CO)C(=O)c2cc(NS(=O)(=O)c3cccs3)ccc2O[C@@H]1CN(C)CC1CC1
[21] COCCCNC(=O)c1ccccc1Oc1ccccc1
[22] COCCCNC(=O)c1ccc2c3c(onc13)-c1ccccc1C2=O
[23] CCOC(=O)C1=C(O)/C(=C\c2ccc(O)c(OCC)c2)N=C1C
[24] C[C@@H]1CN([C@H](C)CO)C(=O)c2cc(C#CC3(O)CCCC3)cnc2O[C@H]1CN(C)C(=O)CC1CC1

screen / no.,17,18,19,20,21,22,23,24
Vif imaging,2.8,2.3,·,·,-5.7,-22.6,-0.1,·
PglD DTNB,3.9,-2.7,1.4,2.4,-7.5,-2.6,·,-1.5
CAL PDZ FP-1,·,-0.6,-1.7,·,-0.6,0.1,-0.2,·
ARNT-TACC3 inh,-3.2,20.8,-6.5,-7.8,-6.1,31.1*,1.8,-4.6
CAL PDZ FP-2,55.4*,-1.4,49.0*,·,1.0,·,62.7*,·
Yeast UUG start,-11.1,-0.8,6.3,-0.6,-11.0,-21.5,·,4.8

Sorted by the number under ARNT-TACC3 inh (falling): four of the compounds above.
[23] CCOC(=O)C1=C(O)/C(=C\c2ccc(O)c(OCC)c2)N=C1C
[16] O=C(N[C@H]1CC[C@@H](CCNC(=O)C2CCOCC2)O[C@@H]1CO)c1ccncc1
[13] C[C@H](CO)N1C[C@H](C)[C@H](CN(C)C(=O)c2cnccn2)Oc2ncc(-c3ccccc3F)cc2C1=O
[21] COCCCNC(=O)c1ccccc1Oc1ccccc1

screen / no.,23,16,13,21
Vif imaging,-0.1,·,·,-5.7
PglD DTNB,·,-1.9,0.1,-7.5
CAL PDZ FP-1,-0.2,·,·,-0.6
ARNT-TACC3 inh,1.8,-0.2,-2.0,-6.1
CAL PDZ FP-2,62.7*,·,·,1.0
Yeast UUG start,·,-8.7,·,-11.0

Next section.
[25] Cc1ccc(C)c(N2CCN(S(=O)(=O)c3ccc(-c4ccc(=O)[nH]n4)o3)CC2)c1
[26] COCC(=O)N(C)C[C@H]1Oc2cc(C#Cc3ccccc3)ccc2S(=O)(=O)N([C@@H](C)CO)C[C@H]1C
[27] Cc1c(NC(=S)N/N=C\c2ccccc2O)c(=O)n(-c2ccccc2)n1C
[28] Cc1c(NC(=S)N/N=C/c2ccc([N+](=O)[O-])cc2O)c(=O)n(-c2ccccc2)n1C
[29] C[C@@H]1CN([C@H](C)CO)S(=O)(=O)c2ccc(-c3cncnc3)cc2O[C@@H]1CN(C)C(=O)Cc1cccnc1
[30] C/C=C/c1cnc2c(c1)C(=O)N([C@H](C)CO)C[C@@H](C)[C@H](CN(C)C(=O)Nc1c(C)noc1C)O2
[31] NC(=S)NN=C(c1ccc(F)cc1)C1CC1
[32] Cc1ccc(CONC(=O)c2ccc([N+](=O)[O-])cc2)cc1

screen / no.,25,26,27,28,29,30,31,32
Vif imaging,28.9,·,-4.2,8.6,·,·,69.9*,12.5
PglD DTNB,2.0,-1.8,·,·,8.1,-3.3,3.0,1.1
CAL PDZ FP-1,-0.6,·,-1.6,-2.7,·,·,-0.7,0.0
ARNT-TACC3 inh,-4.7,-9.4,66.4*,61.3*,4.5,-1.3,41.9,·
CAL PDZ FP-2,44.1*,·,-0.4,-0.3,·,·,-4.6,-5.8
Yeast UUG start,5.4,7.8,·,·,-24.9,-2.5,-27.9,-33.7

[33] Cc1ccc(CONC(=O)/N=C/N(C)C)cc1
[34] C#CCOCCOCCOCCNc1nc(N2CCN(C(=O)CCCCCCCCCCNC(=O)[C@H]([C@@H](C)CC)n3cc(CCCCCN)nn3)CC2)nc(N2CCN(C(=O)CCCCCCCCCCNC(=O)[C@H]([C@@H](C)CC)n3cc(CCCCN=C(N)N)nn3)CC2)n1
[35] C#CCOCCOCCOCCNc1nc(N2CCN(C(=O)CCCCCCCCCCNC(=O)Cn3cc(CCCCCN)nn3)CC2)nc(N2CCN(C(=O)CCCCCCCCCCNC(=O)[C@H]([C@@H](C)CC)n3cc(CCCCN=C(N)N)nn3)CC2)n1
[36] C#CCOCCOCCOCCNc1nc(N2CCN(C(=O)CCCCCCCCCCNC(=O)[C@H]([C@@H](C)CC)n3cc(CCCCN=C(N)N)nn3)CC2)nc(N2CCN(C(=O)CCCCCCCCCCNC(=O)[C@H](CO)n3cc(CCCCCN)nn3)CC2)n1
[37] COc1ccc(OC)c(NC(=O)c2nc(-c3ccccc3)oc2C)c1
[38] COc1ccc(Br)cc1C(=O)Nc1ccc(N2CCCC2)cc1
[39] COc1ccc(Br)cc1C(=O)Nc1ccc(N2CCN(S(C)(=O)=O)CC2)cc1
[40] CO[C@H]1CN(C)C(=O)c2ccc(NC(=O)c3ccccc3)cc2OC[C@@H](C)N(C(=O)C2CC2)C[C@H]1C
[41] C[C@@H]1CN([C@H](C)CO)S(=O)(=O)c2ccc(C3=CCCCC3)cc2O[C@H]1CN(C)C(=O)C1CCCCC1

screen / no.,33,34,35,36,37,38,39,40,41
Vif imaging,63.3*,+,104.3*,21.5,113.7*,143.2*,13.0,·,·
PglD DTNB,-2.8,-4.8,5.5,-4.6,-2.7,4.4,-2.5,6.2,1.0
CAL PDZ FP-1,-1.3,-1.2,0.0,-1.9,-1.1,-1.5,0.4,·,·
ARNT-TACC3 inh,0.8,-34.4,6.3,29.5,-2.2,-4.2,-0.9,-2.6,6.9
CAL PDZ FP-2,-1.7,-2.6,-8.5,-1.6,·,3.0,-1.6,·,·
Yeast UUG start,2.4,-0.9,27.2,-5.7,-14.8,-11.7,-28.8,·,4.1
